This passage reports IC50 results from BindingDB's records for doi:10.1126/science.abf1611 (Sichuan University, 2021).

The target of the assay is Replicase polyprotein 1ab (Severe acute respiratory syndrome coronavirus 2, UniProt P0DTD1). Put plainly: The enzymatic inhibition assay.

Each structure is given as a SMILES string.

Consider `O=C[C@H](C[C@@H]1CCNC1=O)NC(=O)[C@H]1[C@@H]2CCC[C@H]2CN1C(=O)CCc1cccc(F)c1` [MI-21], for which half-maximal inhibition (IC50) was put at 7.6 nM.
Consider `O=C[C@H](C[C@@H]1CCNC1=O)NC(=O)[C@H]1[C@@H]2CCC[C@H]2CN1C(=O)COc1ccc(Cl)cc1` [MI-28], for which the IC50 (in general, the midpoint of a concentration-inhibition curve) stood at 9.2 nM.
